In brackets after ≈: the same amount, converted by molar mass. Like-named read-outs stand apart in the source and are kept apart here.
Legend:
Format in all cases: cell-based
[1] = system: K. pneumoniae ATCC 13882
Procedure: (§1) MIC values (μg/mL) were determined by broth microdilution under CLSI conditions.

[2] = system: E. coli ATCC 25922
Procedure: as §1

[3] = system: K. pneumoniae ATCC 13822
Procedure: (§2) The inoculum was prepared by making a direct suspension of isolated colonies (selected from an 18-24 hour Mueller-Hinton agar plate) adjusted to the 0.5 McFarland standard. […] The assays were performed in duplicate. […] Several of the compounds were subjected to multiple tests, and where this is the case, the MIC presented is the median value obtained. The MIC values are quoted in μg/mL.

[4] = system: E. coli ATCC 25922; remark: listed apart in the source
Procedure: as §2

[5] = system: A. baumannii ATCC BAA-747; settings: ATCC BAA-747
Procedure: as §2

[6] = system: P. aeruginosa ATCC 27853
Procedure: as §2

[7] = cation-adjusted Mueller-Hinton Broth, 18-20 h, 35° C.

MIC P. aeruginosa ATCC 27853 ([6]; ATCC 27853)	Compound	MIC K. pneumoniae ATCC 13882 [1]	MIC E. coli ATCC 25922 [2]	MIC K. pneumoniae ATCC 13822 ([3]; ATCC 13822)	MIC E. coli ATCC 25922 ([4]; ATCC 25922)	MIC A. baumannii ATCC BAA-747 [5]	MIC K. pneumoniae ATCC 13822 [3, 7]	MIC E. coli ATCC 25922 [4, 7]	MIC P. aeruginosa ATCC 27853 [6, 7]
	CC(C)C[C@@H]1NC(=O)[C@@H](Cc2ccccc2)NC(=O)[C@H](CCN)NC(=O)[C@@H](NC(=O)[C@H](CN)NC(=O)[C@@H](NC(=O)C[C@H](CN)c2cccc(Cl)c2)[C@@H](C)O)CCNC(=O)[C@H]([C@@H](C)O)NC(=O)[C@H](CCN)NC(=O)[C@H](CCN)NC1=O [Example 5, (S)-4-amino-3-(3- chlorophenyl)butanoyl- Thr-Dap-Cyclo[Dab- Dab-DPhe-Leu-Dab- Dab-Thr]]	0.125 µg/mL (≈ 0.109 µM)	0.125 µg/mL (≈ 0.109 µM)	0.125 µg/mL (≈ 0.109 µM)	0.125 µg/mL (≈ 0.109 µM)	0.125 µg/mL (≈ 0.109 µM)			
0.125 µg/mL (≈ 0.109 µM)	CC(C)C[C@@H]1NC(=O)[C@@H](Cc2ccccc2)NC(=O)[C@H](CCN)NC(=O)[C@@H](NC(=O)[C@H](CN)NC(=O)[C@@H](NC(=O)C[C@@H](CN)c2cccc(Cl)c2)[C@@H](C)O)CCNC(=O)[C@H]([C@@H](C)O)NC(=O)[C@H](CCN)NC(=O)[C@H](CCN)NC1=O [Example 6, (R)-4-amino-3-(3- chlorophenyl) butanoyl- Thr-Dap-Cyclo[Dab- Dab-DPhe-Leu-Dab- Dab-Thr]]			0.125 µg/mL (≈ 0.109 µM)	0.125 µg/mL (≈ 0.109 µM)				
	CC[C@@H]1NC(=O)[C@@H](Cc2ccccc2)NC(=O)[C@H](CCN)NC(=O)[C@@H](NC(=O)[C@H](CN)NC(=O)[C@@H](NC(=O)C[C@H](CN)c2cccc(C(C)C)c2)[C@@H](C)O)CCNC(=O)[C@H]([C@@H](C)O)NC(=O)[C@H](CCN)NC(=O)[C@H](CCN)NC1=O [Example 17]						0.125 µg/mL (≈ 0.111 µM)	0.125 µg/mL (≈ 0.111 µM)	0.125 µg/mL (≈ 0.111 µM)
